Only a part is listed here, and it is no random draw. Calls of active or inactive are those of the source. The call rests on the fitted dose curve.

Chains of the proteins cited; added tags and fusions are not shown. Lines headed by an entry give the natural chain unless they say otherwise; changes in a name come on top.
UniProt Q9UIF8: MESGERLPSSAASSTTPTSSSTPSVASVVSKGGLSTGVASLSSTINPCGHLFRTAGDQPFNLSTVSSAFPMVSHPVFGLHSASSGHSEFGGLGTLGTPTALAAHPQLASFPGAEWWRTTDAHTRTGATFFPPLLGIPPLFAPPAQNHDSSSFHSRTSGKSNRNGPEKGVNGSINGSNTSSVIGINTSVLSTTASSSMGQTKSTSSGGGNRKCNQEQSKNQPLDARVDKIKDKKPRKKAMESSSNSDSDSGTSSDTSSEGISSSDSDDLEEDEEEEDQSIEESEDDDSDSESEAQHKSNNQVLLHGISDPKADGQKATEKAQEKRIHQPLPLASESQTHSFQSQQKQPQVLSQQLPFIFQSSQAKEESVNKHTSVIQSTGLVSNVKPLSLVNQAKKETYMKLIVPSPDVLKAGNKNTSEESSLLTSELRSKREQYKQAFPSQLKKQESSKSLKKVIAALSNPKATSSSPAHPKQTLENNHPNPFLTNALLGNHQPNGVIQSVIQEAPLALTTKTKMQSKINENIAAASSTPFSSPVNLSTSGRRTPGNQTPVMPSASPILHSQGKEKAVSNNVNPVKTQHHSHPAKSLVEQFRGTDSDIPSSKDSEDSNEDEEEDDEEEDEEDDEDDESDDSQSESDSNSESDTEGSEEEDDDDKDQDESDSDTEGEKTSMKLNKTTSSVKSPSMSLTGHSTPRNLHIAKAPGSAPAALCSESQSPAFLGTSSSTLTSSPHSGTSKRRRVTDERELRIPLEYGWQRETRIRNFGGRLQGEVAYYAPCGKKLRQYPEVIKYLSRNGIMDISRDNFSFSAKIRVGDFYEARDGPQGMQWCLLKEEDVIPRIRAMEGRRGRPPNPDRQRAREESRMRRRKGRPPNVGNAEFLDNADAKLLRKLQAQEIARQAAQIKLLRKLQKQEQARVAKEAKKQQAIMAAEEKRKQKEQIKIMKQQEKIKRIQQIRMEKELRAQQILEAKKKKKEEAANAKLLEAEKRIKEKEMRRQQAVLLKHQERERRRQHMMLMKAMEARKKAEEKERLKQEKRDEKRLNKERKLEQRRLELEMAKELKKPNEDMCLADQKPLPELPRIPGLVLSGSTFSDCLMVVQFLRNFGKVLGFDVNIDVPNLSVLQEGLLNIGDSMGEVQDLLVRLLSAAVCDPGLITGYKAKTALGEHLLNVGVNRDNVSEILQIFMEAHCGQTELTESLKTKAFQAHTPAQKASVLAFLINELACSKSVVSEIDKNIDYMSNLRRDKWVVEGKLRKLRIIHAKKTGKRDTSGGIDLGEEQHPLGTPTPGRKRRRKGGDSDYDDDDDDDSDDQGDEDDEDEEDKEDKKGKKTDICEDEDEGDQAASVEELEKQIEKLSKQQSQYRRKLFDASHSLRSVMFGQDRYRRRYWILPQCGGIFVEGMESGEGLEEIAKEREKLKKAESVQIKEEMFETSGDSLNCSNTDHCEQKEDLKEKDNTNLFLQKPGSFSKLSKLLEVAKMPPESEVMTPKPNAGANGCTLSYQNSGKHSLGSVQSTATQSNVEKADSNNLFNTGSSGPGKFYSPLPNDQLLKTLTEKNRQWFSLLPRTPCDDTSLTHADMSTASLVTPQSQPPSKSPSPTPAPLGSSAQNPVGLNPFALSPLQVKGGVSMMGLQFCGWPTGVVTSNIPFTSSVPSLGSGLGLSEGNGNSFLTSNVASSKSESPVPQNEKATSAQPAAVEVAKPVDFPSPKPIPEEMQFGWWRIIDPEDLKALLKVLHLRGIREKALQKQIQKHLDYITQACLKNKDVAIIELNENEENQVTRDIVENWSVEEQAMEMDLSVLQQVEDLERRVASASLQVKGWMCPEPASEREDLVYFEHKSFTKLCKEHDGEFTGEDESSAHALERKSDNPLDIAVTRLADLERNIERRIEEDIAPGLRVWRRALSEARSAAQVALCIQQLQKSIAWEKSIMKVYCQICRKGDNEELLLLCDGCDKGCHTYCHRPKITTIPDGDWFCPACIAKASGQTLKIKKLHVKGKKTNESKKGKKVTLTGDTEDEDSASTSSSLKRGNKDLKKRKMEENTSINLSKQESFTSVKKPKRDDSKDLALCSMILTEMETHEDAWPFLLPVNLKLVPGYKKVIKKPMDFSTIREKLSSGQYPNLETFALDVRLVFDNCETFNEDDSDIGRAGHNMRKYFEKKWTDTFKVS

In this test the target is Bromodomain adjacent to zinc finger domain protein 2B (Homo sapiens) (UniProt Q9UIF8). Nature of the test: qHTS Assay for Inhibitors of BAZ2B: Hit Validation. As to conditions: AlphaScreen BAZ2B / biotin-H3K14Ac peptide displacement. From the text: BAZ2B (bromodomain adjacent to zinc finger domain, 2B) belongs to a family of ubiquitously expressed bromodomain containing proteins, which biological function has not yet been elucidated. […] The interaction of BAZ2B with ISWI mediated by the BAZ1 motif has recently been described. […] The protocol is based on the AlphaScreen (PerkinElmer) displacement assay developed by NCGC [5], but uses the peptide ligand Biot-H3K14Ac, a high affinity binding partner for BAZ2B, in an AlphaScreen format. Although AlphaScreen has significant advantages with its utility in a variety of epigenetic target assays, the primary screening data provided in this deposition should be used with caution due to the prevalence of screening artifacts. The top compound concentration tested was 110uM in this assay, which increases number of actives and potential artifacts. […] Yasgar, et al. Compound Management for Quantitative High-Throughput Screening. […] Inglese, et al. Quantitative high-throughput screening: a titration-based approach that efficiently identifies biological activities in large chemical libraries. […]
To each well of a 1,536w plate, 2ul of BAZ2B protein (final 50nM) and 1ul biotinylated histone peptide acetylated at Lys14 [b-H3(5-23)K14Ac] […] Plates were read on an EnVision multilabel plate reader using the 1,536 plate HTS AlphaScreen aperture (excitation time 80 ms, measurement time 240 ms).
Background: qHTS replaces the single test concentration by a dilution series.
As to `O=P(Nc1nccs1)(c1ccccc1)c1nc2ccccc2s1` (stereo unspecified), the Potency is active: 1000 nM.

For the origin of these results see PubChem BioAssay AID588809 (National Center for Advancing Translational Sciences (NCATS), 2011).
